Literature values as cited in patent US12053452B2 (priority 2021, dated 2024).

Conditions: human urine, after racemic MDMA; cited from earlier work

Substance | enantiomer with higher Cmax
(±)-4-hydroxy-3-methoxymethamphetamine | S-enantiomers were higher
3,4-dihydroxymethamphetamine | Higher R-enantiomer Cmax
